“Also recorded” adds a separate entry of the source.
Molecular target: T1, thrombin/antithrombin III interaction (Homo sapiens, UniProt P01008)
T1 construct: purchased Diapharma; West Chester, OH (Chromogenix Coatest assay); host or cells: human plasma (thrombin activity)
Assay: Chromogenix Coatest anticoagulant assay
Format: biochemical
Details: chromogenic thrombin substrate, absorbance 415 nm, compared to international heparin standard
Excerpt: A chromogenic assay (based on the thrombin/antithrombin III interaction and bioactivity) that is used diagnostically to assess heparin levels in human blood was used to compare the international heparin standard (black diamonds) to sTestan (black triangle) and Roneparstat (gray circles). The arrow marks the value of the uninhibited control with maximum coagulation in this assay. […] These findings indicate that sTestan is unlikely to cause bleeding side effects.
The Chromogenix Coatest assay (Diapharma; West Chester, OH) was used to measure the effect on thrombin (the clotting factor that converts fibrinogen into fibrin glue) inactivation by antithrombin III. Typically, heparin (here the international heparin standard) is required to effectively reduce the thrombin activity (from human plasma), as measured by absorbance (at 415 nm) of a chromogenic thrombin substrate.

Chains of the proteins cited; added tags and fusions are not shown. Residues count along the entry.
UniProt P01008, 33-464: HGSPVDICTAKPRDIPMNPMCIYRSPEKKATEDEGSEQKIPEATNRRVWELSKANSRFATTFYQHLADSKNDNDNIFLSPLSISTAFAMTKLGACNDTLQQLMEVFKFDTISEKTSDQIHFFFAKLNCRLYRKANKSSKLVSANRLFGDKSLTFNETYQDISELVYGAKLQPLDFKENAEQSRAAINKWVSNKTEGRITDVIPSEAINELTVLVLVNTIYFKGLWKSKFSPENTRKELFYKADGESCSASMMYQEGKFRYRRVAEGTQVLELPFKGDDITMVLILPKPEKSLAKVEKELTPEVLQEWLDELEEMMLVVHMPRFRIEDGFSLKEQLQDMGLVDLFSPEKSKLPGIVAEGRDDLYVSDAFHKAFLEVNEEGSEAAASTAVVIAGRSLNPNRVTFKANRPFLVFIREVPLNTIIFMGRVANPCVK

Substance: sulfated or sulfonated testosteronan [sTestan]
- anticoagulant activity: no anticoagulant activity even at 20,000-fold higher concentrations than heparin; also recorded: less anticoagulant activity than Roneparstat; also recorded: not be an anticoagulant

Source: patent US20250375471A1, “HEPARANASE INHIBITORS AND METHODS OF USE” (The Board of Regents of the University of Oklahoma, priority 2022, published 2025)
